Data on five compounds can be found in US8592455B2 (priority 2008, dated 2013).

Usually IC50 stands for the midpoint of a concentration-inhibition curve.

Molecules are shown by their SMILES.

For this test, the target named is Pim3 kinase (Homo sapiens (Human), UniProt Q86V86). The conditions noted are these: read-out: Pim3 IC50.
Consider `C[C@H]1C[C@@H](c2ccncc2NC(=O)c2nc(-c3c(F)cccc3F)c(F)cc2N)C[C@@H](N)[C@@H]1O` (stereo in doubt) [Example 130, 3-amino-N-(4-(3-amino-4-hydroxy-5-methylcyclohexyl)pyridin-3-yl)-6-(2,6-difluorophenyl)-5-fluoropicolinamide], for which the IC50 came out at 8 nM.

As for `Nc1cc(F)c(-c2c(F)cccc2F)nc1C(=O)Nc1cnccc1[C@@H]1CC[C@H](O)[C@H](N)C1` (stereo in doubt) [Example 131, 3-amino-N-(4-(3-amino-4-hydroxycyclohexyl)pyridin-3-yl)-6-(2,6-difluorophenyl)-5-fluoropicolinamide], the IC50 is 6 nM.

Turning to `C[C@H]1C[C@@H](c2ccncc2NC(=O)c2nc(-c3c(F)cccc3F)c(F)cc2N)C[C@@H](N)[C@H]1O` (stereo in doubt) [Example 132, 3-amino-N-(4-(3-amino-4-hydroxy-5-methylcyclohexyl)pyridin-3-yl)-6-(2,6-difluorophenyl)-5-fluoropicolinamide], the IC50 was 6 nM.

On to `C[C@@H]1C[C@H](N)C[C@H](c2ccncc2NC(=O)c2ccc(F)c([C@H]3CC[C@@H](O)CC3)n2)C1` [Example 54, N-(4-((1R,3S,5S)-3-amino-5-methylcyclohexyl)pyridin-3-yl)-5-fluoro-6-((1s,4s)-4-hydroxycyclohexyl)picolinamide], for which the IC50 stood at 24 nM.

`Nc1ccc(-c2c(F)cccc2F)nc1C(=O)Nc1cnccc1C1=CC(N)CCC1` (centres unmarked) [Example 107, 3-amino-N-(4-(3-aminocyclohex-1-enyl)pyridin-3-yl)-6-(2,6-difluorophenyl)picolinamide]: the IC50 was 6 nM.
